Literature values, collected in patent US20150197550A1 (UNIVERSITY OF ULSTER, priority 2012, published 2015).

Settings: in man / in humans, inactivation by DPP-4; cited from earlier work

## Glucose-dependent insulinotropic polypeptide [GIP(1-42)]
  half-life: less than 7 minutes
